Experiments:
Substance-K receptor = Substance-K receptor (Homo sapiens, UniProt P21452); assay: Binding affinity to human NK2 receptor by radioligand displacement assay
[1] = biological target: Prostaglandin E2 receptor EP2 subtype (Homo sapiens, UniProt P43116); assay: Binding affinity to human prostanoid EP2 receptor by radioligand displacement assay

Chains of the proteins cited; added tags and fusions are not shown. Lines headed by an entry give the natural chain unless they say otherwise; changes in a name come on top.
UniProt P21452, whole entry: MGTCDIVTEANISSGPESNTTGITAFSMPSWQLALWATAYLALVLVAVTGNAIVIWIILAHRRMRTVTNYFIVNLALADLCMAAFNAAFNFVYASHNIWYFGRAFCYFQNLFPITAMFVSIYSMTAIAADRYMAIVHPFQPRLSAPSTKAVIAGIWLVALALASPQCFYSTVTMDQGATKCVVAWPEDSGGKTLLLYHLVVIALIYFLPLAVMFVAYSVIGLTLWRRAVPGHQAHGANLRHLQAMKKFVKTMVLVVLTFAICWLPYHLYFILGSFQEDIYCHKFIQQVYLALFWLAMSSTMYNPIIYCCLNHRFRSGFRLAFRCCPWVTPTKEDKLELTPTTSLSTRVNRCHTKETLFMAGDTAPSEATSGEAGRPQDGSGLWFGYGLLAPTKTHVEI
UniProt P43116: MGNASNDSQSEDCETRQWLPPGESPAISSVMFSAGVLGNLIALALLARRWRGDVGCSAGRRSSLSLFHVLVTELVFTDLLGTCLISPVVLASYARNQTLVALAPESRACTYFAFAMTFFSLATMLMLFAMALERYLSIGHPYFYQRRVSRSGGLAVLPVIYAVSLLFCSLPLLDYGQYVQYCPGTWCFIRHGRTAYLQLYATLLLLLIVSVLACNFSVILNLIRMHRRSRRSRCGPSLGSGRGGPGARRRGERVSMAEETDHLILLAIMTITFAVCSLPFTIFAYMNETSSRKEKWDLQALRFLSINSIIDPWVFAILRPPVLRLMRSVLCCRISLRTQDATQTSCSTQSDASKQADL

IC50 [1] [nM] | Ki [1] [nM] | SMILES | Ki (Substance-K receptor) [nM]
– | – | CCCC[C@H](NC(=O)[C@H](CC(C)C)NC(=O)CNC(=O)[C@@H](NC(=O)[C@H](Cc1ccccc1)NC(=O)[C@H](CO)NC(=O)[C@@H](N)CC(=O)O)C(C)C)C(N)=O | 5
3.3 | 1.7 | CCCCC[C@H](O)/C=C/[C@H]1[C@H](O)CC(=O)[C@@H]1C/C=C\CCCC(=O)O [DINOPROSTONE] | –

— ChEMBL document CHEMBL2390830 (Eur J Med Chem, 2013)
